Test [1] concerns the target T1, LTD4 receptor (intestinal smooth muscle receptors, guinea pig ileum) (Cavia porcellus, UniProt Q2NNR5).
T1 construct: Terminal ilea were removed from the animals; from tissue; host or cells: guinea pig terminal ileum segments
T1 sequence (Q2NNR5 1-340): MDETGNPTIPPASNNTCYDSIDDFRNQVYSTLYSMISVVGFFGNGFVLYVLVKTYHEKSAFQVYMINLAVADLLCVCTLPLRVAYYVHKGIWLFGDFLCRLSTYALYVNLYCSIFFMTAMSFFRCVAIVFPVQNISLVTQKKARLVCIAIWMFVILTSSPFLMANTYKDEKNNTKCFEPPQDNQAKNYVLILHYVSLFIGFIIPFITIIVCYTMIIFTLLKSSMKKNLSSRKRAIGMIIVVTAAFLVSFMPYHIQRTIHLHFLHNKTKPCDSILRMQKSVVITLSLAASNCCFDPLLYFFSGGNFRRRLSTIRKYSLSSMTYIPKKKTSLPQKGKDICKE
Kind of test: Assay 2 - Guinea Pig Ileum, antagonism of LTD4 contraction. As to conditions: drug added 30 minutes prior, read-out: GP ileum (pKb) (converted). Here is the method: Assay 2--Guinea Pig Ileum:
Guinea pig ileum was used to determine the potency of novel LTD4 receptor antagonists on intestinal smooth muscle receptors. Terminal ilea were removed from the animals exsanguinated after CO2 asphyxiation and cut into smaller segments of approximately 2 to 3 cm. Tissues were placed in organ baths containing Krebs'bicarbonate solution prepared without indomethacin and 1-cysteine and aerated with 95% O2 and 5% CO2. After a 60 minute equilibration period, 3 submaximal contractions to histamine (3×10^-6 M) were obtained on all tissues. A cumulative concentration-response curve to LTD4 was then generated using the method of Van Rossum (Arch. Int. Pharmacodyn. Ther. 143:299, 1963). Agonist was washed from the baths and the tissues permitted to recover. After a second LTD4 concentration-response curve was produced, the ilea were washed once again and permitted to re-equilibrate. Experimental drug was added to the baths 30 minutes prior to a final LTD4 concentration-response curve.
(§1) The contractions of trachea and ilea to LTD4 in the presence of the drug was compared to responses in the absence of drug. KB values were calculated by the method of Furchgott (Ann. N.Y. Acad. Sci., 139:553, 1967) using the following equation: KB =[Antagonist]/Dose-Ratio-1. […]

Test [2] has as its target T2, LTD4 receptor (guinea pig lung membrane) (Cavia porcellus, UniProt Q2NNR5).
T2 construct: guinea-pig lung membrane preparation; from tissue; host or cells: guinea pig lung membranes
T2 sequence (Q2NNR5 1-340): T1 sequence (Q2NNR5 1-340)
Kind of test: Assay 3 - Guinea Pig Lung Membrane [3H] LTD4 Radioligand Binding (GPLM binding). The note with it: [3H] LTD4, guinea pig lung membrane, 30 min, 30° C., pH 6.5. As to the method:
The compounds of the invention also antagonise LTD4 radioligand binding in guinea pig lung membranes in the test described by Saussy et al., Mol. […] Assay 3--Guinea Pig Lung Membrane [^3 H] LTD4 Radioligand Binding: [^3 H] LTD4 was purchased from New England Nuclear (Boston, Mass.). All other chemicals were purchased from Sigma (St. Louis, Mo.). Incubations were performed in silanised glass tubes and contained 30 mg of guinea-pig lung membrane preparation (Saussy, et al., Mol. […] The binding reaction was terminated after 30 min. at 30° C. by the addition of 4 ml ice cold wash buffer (25 mM Tris --HCl, pH 7.5), followed immediately by vacuum filtration over Whatman (GF/C glass fibre filters, using a Brandel (Gaithersburg, Md.) 48 place harvester. The tubes and filter were washed 3×4 ml in cold wash buffer. Retained radioactivity was determined by liquid scintillation counting at 50% counting efficiency using Ready Protein Plus cocktail (Beckman, Fullerton, Calif.). Data were analyzed using linear regression analysis of log-logit plots of the values between 10% and 90% of control biding to calculate I[…] and slope factors (pseudo-Hill coefficients). IC50 values were corrected for radioligand concentrations (Cheng and Prusoff, Biochem. Pharmacol. 22:3099-3108, 1973) to calculate Ki values.

For test [3], the target named is T3, leukotriene receptor (guinea pig trachea) (Cavia porcellus, UniProt Q2NNR5).
T3 construct: Trachea were cut into ring segments and the epithelium removed; from tissue; host or cells: guinea pig tracheal rings, epithelium removed (male Hartley)
T3 sequence (Q2NNR5 1-340): T1 sequence (Q2NNR5 1-340)
Kind of test: Assay 1 - Guinea Pig Tracheae, leukotriene receptor antagonism (LTD4 contraction). As to conditions: antagonist added 45 minutes prior, read-out: GP trach (pKb) (converted). Here is the method: Assay 1--Guinea Pig Tracheae
Leukotriene receptor antagonism was evaluated in isolated smooth muscles by the following procedure:
Male Hartley guinea pigs weighing 250-400 grams were asphyxiated with CO2 and exsanguinated. Trachea were excised and placed in Krebs'-bicarbonate solution of the following composition in mM/liter: NaCl, 118.2; NaHCO3, 24.8; KCl, 4.6; KH2 PO4, 1.2, MgSO4.7H2 O, 1.2; dextrose, 10.0; CaCl2.2H2 O, 2.5; 1-cysteine, 3.0, and indomethacin, 3 μM. Trachea were cut into ring segments and the epithelium removed by gently rubbing the luminal surface with a cotton swab. Tracheal rings were placed on supports constructed from two 1 inch 30 gauge disposable stainless steel hypodermic needles (Hooker, et al., 1977, Blood Vessels 14:1-11), and transferred to organ baths containing Krebs' solution maintained at 37° C. and aerated with 95% O2 and 5% CO2. Isometric measurements were made with a Grass FTO3C force-displacement transducer and recorded on a Grass polygraph as changes in grams of force. […]
as §1

With `c1cc(CCc2nnn[nH]2)c2c(c1)CCN2Cc1ccc(OCc2ccc3ccccc3n2)cc1` [Example 8, 5-[2-[1-[4-(Quinolin-2-ylmethoxy)benzyl]-2,3-dihydroindol-7-yl]-ethyl]-1H-tetrazole], the figures for the Kb in test [1] and in test [3] were 5.5 nM and 3.89 nM, respectively. For the same compound, the “GPLM binding (pKi)” value in test [2] was 7.8.

For the origin of these results see patent US5622969A, “Method of treating leukotriene caused diseases with N-benzyl dihydroindole LTD4 antagonists” (Eli Lilly and Company, priority 1995, dated 1997).
